The numbers were not newly measured in publication PMC12901815 (Environmental Analysis, Health and Toxicology, 2025), which cites them from elsewhere.

Where two headings read alike, the source gives them in different places.

The conditions of data set [1]: rats with cannulated bile ducts, single oral 20 mg/kg, cited from earlier work.
For data set [2] the following is noted: male Alderley Park rats, single oral 20 mg/kg, over 240 hours; cited from earlier work.
For data set [3] the following is noted: rats, via drinking water or in the diet; cited from earlier work.

Consider polyaminopropylbiguanide [PHMB], for which the “radioactivity excreted in feces” value in data set [1] (females) is recorded as 98.9%. Further, in data set [1] (males), the “radioactivity excreted in feces” value was 96.8%. In data set [1], the “biliary excretion of administered radioactivity” value is given as “less than 0.2%” and the “urinary excretion of administered radioactivity” value is “less than 3%”. In data set [2], the “radioactivity excreted in feces” value is 93.1 ± 1.58%, the “radioactivity excreted in urine” value is recorded as 5.6 ± 0.35% and the “radioactivity excreted via exhalation” value is 0.2%. In addition, in data set [3], the “absorption and route of excretion” value was “absorbed; most of it was excreted in urine, with smaller amounts excreted in feces”.
